Measured values from PubChem BioAssay AID652082 (The Scripps Research Institute Molecular Screening Center, 2013).
Calls of active or inactive are those of the source. The rule behind the calls is not given here.

The chains behind the UniProt entries cited, without tags or fusion partners. Where a name states a change or a piece, a line headed by the entry shows the natural chain unless it says otherwise.
UniProt P41145: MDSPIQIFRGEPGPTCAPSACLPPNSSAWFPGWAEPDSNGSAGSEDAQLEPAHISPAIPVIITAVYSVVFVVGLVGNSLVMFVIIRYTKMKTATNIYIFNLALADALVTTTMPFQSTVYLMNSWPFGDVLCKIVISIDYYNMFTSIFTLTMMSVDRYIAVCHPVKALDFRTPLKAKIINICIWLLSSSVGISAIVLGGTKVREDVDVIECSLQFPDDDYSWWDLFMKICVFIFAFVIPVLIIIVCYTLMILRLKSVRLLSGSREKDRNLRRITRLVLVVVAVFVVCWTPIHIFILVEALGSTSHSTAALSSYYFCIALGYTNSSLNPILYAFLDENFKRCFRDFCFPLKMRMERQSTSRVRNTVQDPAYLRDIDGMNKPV

Target: Kappa-type opioid receptor (Homo sapiens) (UniProt P41145)
Assay: OPRK1 antagonists, confirmation, cell-based, fluorescence (AID 652082)
Settings: OPRK1 cell line, fluorescence antagonist read-out; at 9 µM; stronger effect = higher value

Cc1csc2c(NC3CCN(Cc4ccccc4)CC3)ncnc12
inhibition: inactive: 43.3%
